Data: patent publication US12201649B2, “Pharmaceutical composition comprising oxidizable biphenol and manganese porphyrin, and method of using the same” (Villanova University, priority 2021, dated 2025)

Experiments:
[1] = system: Jurkat cells; test: mitochondrial ROS (superoxide) by MitoSOX Red flow cytometry; type: cell-based, human; details: 4 hours; for production of ROS in the mitochondria (MitoSOX Red): dtBQ or dtBHQ at 5 μM in the presence or absence of 12 μM MnTMPyP
Experimental: Referring to FIGS. 9 and 13, Jurkat cells were treated with the indicated compounds for 4 hours in RPMI with 10% FBS. Mitochondrial ROS were measured using the MitoSOX Red dye, which enters living cells, targets the mitochondria, and is preferentially oxidized by superoxide. Fluorescence was read on an Accuri C6 flow cytometer with excitation from a 488 nm laser and an FL2 filter. 10,000 events were acquired. Flow cytometry data was analyzed using Flowlogic software. Samples were gated using forward and side scatter to exclude debris, and the signal intensity versus number of events was plotted.
Referring to FIG. 9, tBQ alone is sufficient to cause apoptosis in Jurkat cells. The result is unaffected by inclusion of MnTMPyP. […] Levels of mitochondrial superoxide were quantified using MitoSOX Red and measured on the flow cytometer, with n=2 (technical replicates).
Levels of mitochondrial superoxide were quantified using MitoSOX Red and measured on the flow cytometer, with n=2 (technical replicates).

[2] = system: PC3 prostate cancer cells; details: dtBHQ at 15 μM in the presence or absence of 2 μM Mn2BuOE, 24 hours
[3] = system: Jurkat cells; test: apoptosis (Annexin-PE) and necrosis (RedDot 2) by flow cytometry, 4 hours; type: cell-based, human; details: 5 μM dtBHQ or dtBQ in the presence or absence of 12 μM MnTMPyP
Experimental: Referring to FIGS. 4, 5, 6, 8, 12 and 15, cells were treated with the indicated compounds or vehicle for 4 hours in RPMI medium with 10% fetal bovine serum (FBS). RPMI medium, also known as RPMI 1640, is a growth medium used in cell culture. In these and other figures, “vehicle” represents when a treatment compound is omitted and replaced with the vehicle that the compound is dissolved in. Thus, when a MnP is omitted, water is added in its place. When an oxidizable phenol is omitted, DMSO is added for a resulting final concentration in the cell media of 0.05% DMSO. Apoptosis was measured using Annexin-PE, and necrosis was measured with RedDot 2. Fluorescence was read on an Accuri C6 flow cytometer with excitation from a 488 nm laser, and FL2 and FL4 filters were used for Annexin-PE and RedDot2, respectively. […] Flow cytometry data was analyzed using Flowlogic software from Inivai Technologies of Australia. […] Percentage of alive, apoptotic, or necrotic cells was determined and graphed as the average±the standard deviation.
The combination of tBHQ and MnTMPyP is toxic to Jurkat cells, a CD4+ T-cell leukemic cell line. […] Cells that were alive, apoptotic or necrotic were determined using flow cytometry. Two specimens (biological duplicates) were measured for each sample.
Cells that were alive, apoptotic or necrotic were determined using flow cytometry, with n=2 (biological duplicates). […]

Compound | production of ROS in the mitochondria (MitoSOX Red) [1] | toxicity to PC3 prostate cancer cells [2] | mitochondrial ROS (superoxide, MitoSOX Red) ([1]; tBQ or tBHQ at 5 μM in the presence or absence of 12 μM MnTMPyP) | toxicity to Jurkat cells [3]
CC(C)(C)c1cc(O)c(C(C)(C)C)cc1O [dtBHQ, 2,5-di-tert-butyl hydroquinone] | no production of ROS in the mitochondria | no toxicity | – | –
CC(C)(C)c1cc(O)ccc1O [tBHQ, tert-butylhydroquinone] | – | – | no mitochondrial ROS formation | –
CC(C)(C)C1=CC(=O)C(C(C)(C)C)=CC1=O [dtBQ, 2,5-di-tert-butyl quinone, reference compound] | no production of ROS in the mitochondria | – | – | no toxicity
